PglD inh: C. jejuni PglD acetyltransferase inhibitors, primary screen, biochemical, DTNB colorimetric, single point. UDP-N-acetylbacillosamine N-acetyltransferase PglD (Campylobacter jejuni). purified PglD enzyme, DTNB colorimetric CoA detection. inhibition, % at 12.5 µM. 360,000 compounds, 0.098% hits. AID 602405, 2012; in the data active means inhibition above about 16%, passing the limit was not always enough
UUG fidelity: alters start codon recognition fidelity in yeast; S. cerevisiae UUG-firefly luciferase reporter, luminescence/redox ratio; activity score, % at 18.7 µM; actives 0.13% (n = 350,000); AID 602363;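 active = replicate mean at a twofold rise or more, about +100% in these data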;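 also: firefly luciferase made from a UUG start codon reports start codon fidelity; reporter light over untreated wells divided by growth signal over untreated wells; some hits fall short of that in this replicate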
Wnt bcat act: Wnt/beta-catenin pathway activators, primary screen, cell-based, plate reader, single point. activation, % at 9.35 µM. 300,000 compounds, 1.2% hits. Wnt/beta-catenin reporter cell assay, activator. AID 743398, 2014; in the data active means activation above about 30%, passing the limit was not always enough;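 further: 0% = neutral control wells and 100% = positive control wells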
miR-122 sensor: miR-122 Renilla sensor signal increase in Huh7, primary screen, miR-122 inhibitor project, cell-based, single point, plate reader; Huh7 miR-122 Renilla luciferase sensor, 48 h; neutral wells = 0, positive control = 100; activation (reporter increase), % at 12.5 µM; 340,000 compounds, 0.3% hits; AID 602342, 2012;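 active means mean replicate activation score at least 90 and every replicate individually at or above 90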;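 further: higher luciferase means less miR-122 activity so hits act as miR-122 inhibitors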
esBAF inh: Bmi1 luciferase reporter increase in mESCs, primary screen, esBAF inhibitor project, mouse ES cells, Bmi1 luciferase knock-in, single point. 24 h; 100% = twice the neutral-well signal. reporter increase, % at 12.5 µM. 350,000 compounds, 2% hits. AID 602393, 2012; in the data active means activation above about 40%;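 further: 0% = median of the plate's neutral control wells and 100% = double that signal; a rise in the Bmi1 reporter signal indicates esBAF inhibition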
MITF TRPM1 HTS: activators of MITF-driven TRPM1 promoter reporter, primary screen, cell-based, SK-MEL-5, luciferase, single point | 300,000 compounds, 0.75% hits | activation, % at 12.5 µM | SK-MEL-5 TRPM1-promoter luciferase, 24 h; % of positive control, neutral wells = 0;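 active means mean activation of at least 80% with every replicate also reaching 80%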;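 further: 0% = neutral control wells and 100% = parthenolide positive control wells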
* marks the source's active call; other numbers are inactive results; · = no result; [ ] = dose if it differs, or a comment. This is a sample that favours compounds with a hit; in the whole collection about 2.8% have one here.

| No. | SMILES | PglD inh | UUG fidelity | Wnt bcat act |
| --- | --- | --- | --- | --- |
| 1 | O=C1C(C=Nc2ccccc2)=C(O)c2ccccc21 | -3.3 | -59.1 | 12.4 |
| 2 | Cc1ccc(O)c(N=CC2=C(O)c3ccccc3C2=O)c1 | -6.0 | -19.9 | 117.1* |
| 3 | O=C1C(C=NCCN2CCOCC2)=C(O)c2ccccc21 | 0.3 | -1.1 | 33.8* |
| 4 | CN=CC1=C(O)c2ccccc2C1=O | -1.9 | -23.0 | 19.0 |
| 5 | Cc1ccc(S(=O)(=O)N[C@@H]2CC[C@H](CC(=O)NCCN3CCCCC3)O[C@H]2CO)cc1 | -3.6 | -2.3 | · |
| 6 | CC(C)C#Cc1ccc2c(c1)O[C@H](CN(C)C(=O)c1cccc(F)c1)[C@@H](C)CN([C@@H](C)CO)S2(=O)=O | 7.8 | 6.5 | · |
| 7 | COc1cccc(-n2cnc3sc(-c4ccccc4)cc3c2=O)c1 | 0.7 | -18.6 | 24.2 |
| 8 | COc1ccc(-n2cnc3sc(-c4ccccc4)cc3c2=O)cc1 | 1.4 | -1.8 | · |

| No. | miR-122 sensor | esBAF inh | MITF TRPM1 HTS |
| --- | --- | --- | --- |
| 1 | -3.9 | 56.0* | 29.1 |
| 2 | 0.8 | 78.5* | 36.6 |
| 3 | -3.6 | 51.4* | 35.3 |
| 4 | -4.5 | 2.8 | 2.7 |
| 5 | · | -1.3 | · |
| 6 | -3.6[16.7 µM] | 6.2 | · |
| 7 | -9.0 | 47.1* | 101.1* |
| 8 | -4.7 | 34.0 | 123.6* |

New compounds follow:
| No. | SMILES | PglD inh | UUG fidelity | Wnt bcat act |
| --- | --- | --- | --- | --- |
| 9 | COc1ccc(-n2cnc3sccc3c2=O)cc1 | -3.2 | -5.1 | 4.8 |
| 10 | Fc1cnc(N2CCc3ccccc32)nc1N1CCc2ccccc21 | -5.9 | -26.2 | 11.3 |
| 11 | Fc1cnc(N2CCN(c3ccccc3)CC2)nc1N1CCN(c2ccccc2)CC1 | · | · | -1.5 |
| 12 | CC1(C)CC(=O)c2cnc(N3CCc4ccccc43)nc2C1 | · | · | 38.5* |
| 13 | Cc1nn(-c2ccccc2)c2sc(C(=O)N3CCCCC3)cc12 | 1.2 | 0.6 | -1.7 |
| 14 | CCN(CC)C(=O)c1cc2c(=O)n3ccccc3nc2s1 | 6.0 | -14.7 | 21.0 |
| 15 | Cc1cccn2c(=O)c3cc(C(=O)N4CCCCC4)sc3nc12 | 3.3 | -20.6 | 9.8 |
| 16 | Cc1cccn2c(=O)c3cc(C(=O)N4CCCC(C)C4)sc3nc12 (stereo not drawn) | 0.2 | -5.2 | 4.6 |

| No. | miR-122 sensor | esBAF inh | MITF TRPM1 HTS |
| --- | --- | --- | --- |
| 9 | -0.2 | -0.4 | 3.2 |
| 10 | 2.8 | 47.4* | 34.8 |
| 11 | · | · | 6.0 |
| 12 | · | · | · |
| 13 | 12.5 | 44.7* | 18.9 |
| 14 | 2.7 | 42.1* | 21.4 |
| 15 | 3.0 | 46.9* | 13.7 |
| 16 | 4.3 | 22.9 | 24.4 |

Carrying on.
| No. | SMILES | PglD inh | UUG fidelity | Wnt bcat act |
| --- | --- | --- | --- | --- |
| 17 | CC1CCCN(C(=O)c2cc3c(=O)n4ccccc4nc3s2)C1 (stereo not drawn) | -1.9 | -6.5 | 11.7 |
| 18 | Cc1csc(C2=C(O)CN(CCc3ccccc3)C2=N)n1 | · | · | · |
| 19 | COc1ccc(CCN2CC(O)=C(c3nc(C)cs3)C2=N)cc1OC | -8.2 | -16.1 | · |
| 20 | CNC[C@H]1Oc2ccc(NS(=O)(=O)c3cccs3)cc2CC(=O)N([C@@H](C)CO)C[C@@H]1C | 0.9 | -7.3 | · |
| 21 | CCC(C)c1ccc(NC(=O)Nc2cccnc2)cc1 (stereo not drawn) | -0.8 | -19.5 | 19.7 |
| 22 | O=C(Nc1cccnc1)c1ccccc1Oc1ccccc1 | 2.3 | -14.5 | · |
| 23 | O=C(Nc1ccccc1)C(=O)Nc1cccnc1 | 5.7 | -17.6 | 41.3* |
| 24 | O=C(Nc1ccccc1)c1cn(CCBr)cn1 | -7.0 | -35.1 | 50.4* |

| No. | miR-122 sensor | esBAF inh | MITF TRPM1 HTS |
| --- | --- | --- | --- |
| 17 | 4.9 | 62.5* | 21.7 |
| 18 | -4.2 | -9.6 | -14.7 |
| 19 | 129.8* | -0.1 | -3.4 |
| 20 | 5.0[16.7 µM] | -5.2 | · |
| 21 | 4.2 | 60.7* | 111.1* |
| 22 | 12.4 | -3.0 | -14.2 |
| 23 | -5.7 | 2.2 | 33.4 |
| 24 | -5.6 | 4.3 | · |

More records.
| No. | SMILES | PglD inh | UUG fidelity | Wnt bcat act |
| --- | --- | --- | --- | --- |
| 25 | O=C(Nc1ccccc1)c1cn2ccccc2n1 | -3.5 | -61.8 | 16.5 |
| 26 | O=C(Nc1cccnc1)c1ccc(Oc2ccccc2)cc1 | 5.8 | -25.8 | 40.8* |
| 27 | CCC(C)c1ccc(NC(=O)NCc2cccnc2)cc1 (stereo not drawn) | 8.5 | -21.1 | 3.0 |
| 28 | C[C@@H]1CN([C@H](C)CO)C(=O)c2cccc(NC(=O)Nc3ccc4c(c3)OCO4)c2O[C@H]1CN(C)Cc1ccncc1 | 20.4 | 8.8 | · |
| 29 | C[C@H]1CN([C@@H](C)CO)C(=O)c2cccc(NS(=O)(=O)c3ccc(F)cc3)c2O[C@H]1CN(C)C(=O)Nc1ccc(C(F)(F)F)cc1 | 0.9 | 7.6 | · |
| 30 | CC=Cc1ccc2n(c1=O)C[C@H]1[C@H](CO)[C@@H](C(=O)NCCC)[C@@H]2N1C(=O)C1CC1 (mixture of isomers) | 2.4 | 19.7 | · |

| No. | miR-122 sensor | esBAF inh | MITF TRPM1 HTS |
| --- | --- | --- | --- |
| 25 | -0.4 | · | -1.6 |
| 26 | 1.6 | 53.6* | 51.9 |
| 27 | 10.8 | 2.1 | 4.8 |
| 28 | -6.0[16.7 µM] | 22.0 | · |
| 29 | 31.4[16.7 µM] | -0.5 | · |
| 30 | 10.2[16.7 µM] | -2.7 | · |

Reprinted at random: 3 compounds from above, in no set order.
| No. | SMILES | PglD inh | UUG fidelity | Wnt bcat act |
| --- | --- | --- | --- | --- |
| 29 | C[C@H]1CN([C@@H](C)CO)C(=O)c2cccc(NS(=O)(=O)c3ccc(F)cc3)c2O[C@H]1CN(C)C(=O)Nc1ccc(C(F)(F)F)cc1 | 0.9 | 7.6 | · |
| 25 | O=C(Nc1ccccc1)c1cn2ccccc2n1 | -3.5 | -61.8 | 16.5 |
| 26 | O=C(Nc1cccnc1)c1ccc(Oc2ccccc2)cc1 | 5.8 | -25.8 | 40.8* |

| No. | miR-122 sensor | esBAF inh | MITF TRPM1 HTS |
| --- | --- | --- | --- |
| 29 | 31.4[16.7 µM] | -0.5 | · |
| 25 | -0.4 | · | -1.6 |
| 26 | 1.6 | 53.6* | 51.9 |
